The record followed here is patent publication US20020150912A1, “Reporter system for cell surface receptor-ligand binding” (priority 2000, published 2002).

Chains of the proteins cited; added tags and fusions are not shown.
UniProt P15823, whole entry: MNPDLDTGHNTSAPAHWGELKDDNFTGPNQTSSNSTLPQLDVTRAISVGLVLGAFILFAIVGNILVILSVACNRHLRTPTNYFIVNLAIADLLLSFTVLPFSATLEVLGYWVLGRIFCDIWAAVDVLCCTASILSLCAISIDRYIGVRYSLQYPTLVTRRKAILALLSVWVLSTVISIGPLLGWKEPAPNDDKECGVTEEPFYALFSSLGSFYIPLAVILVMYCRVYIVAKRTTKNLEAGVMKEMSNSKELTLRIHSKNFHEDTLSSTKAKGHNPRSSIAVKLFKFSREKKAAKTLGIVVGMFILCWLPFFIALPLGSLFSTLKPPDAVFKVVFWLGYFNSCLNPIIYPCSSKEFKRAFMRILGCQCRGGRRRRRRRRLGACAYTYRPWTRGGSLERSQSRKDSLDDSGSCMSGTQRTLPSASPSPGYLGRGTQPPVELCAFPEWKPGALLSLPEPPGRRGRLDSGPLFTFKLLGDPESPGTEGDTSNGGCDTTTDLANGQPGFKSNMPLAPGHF

In this test the target is alpha adrenoceptor, Rα1b (Rattus norvegicus, UniProt P15823). Description: cell-based.

Structures are written as SMILES.

For orientation: EC50 means the midpoint of the concentration-response curve. As to `CNC[C@H](O)c1ccc(O)c(O)c1` [epinephrine], the EC50 is 117 nM.
